ChEMBL document CHEMBL1133361, “Synthesis and biological activity of peptidyl aldehyde urokinase inhibitors” (Bioorg Med Chem Lett, 2000)

Target: Urokinase-type plasminogen activator (Homo sapiens, UniProt P00749)
Assay: The compound was tested in vitro for its inhibitory activity against human urokinase enzyme, activity expressed as IC50

| Compound | IC50 [nM] |
| --- | --- |
| C[C@H](NC(=O)[C@@H](CO)NC(=O)OCc1ccccc1)C(=O)N[C@H]1CCCN(C(=N)N)C1O (stereo partly drawn) | 19 |
| C[C@H](NC(=O)[C@@H](CO)NS(=O)(=O)c1ccccc1)C(=O)N[C@H]1CCCN(C(=N)N)C1O (stereo partly drawn) | 10.3 |
| N=C(N)N1CCCC(NC(=O)[C@H]2CCCN2C(=O)C(CO)NC(=O)OCc2ccccc2)C1O (stereo partly drawn) | 12.4 |
